Laboratory results published in patent US10150751B2 (Merck Sharp & Dohme Corp., priority 2014, dated 2018).

Chains of the proteins cited; added tags and fusions are not shown.
UniProt O43613, whole entry: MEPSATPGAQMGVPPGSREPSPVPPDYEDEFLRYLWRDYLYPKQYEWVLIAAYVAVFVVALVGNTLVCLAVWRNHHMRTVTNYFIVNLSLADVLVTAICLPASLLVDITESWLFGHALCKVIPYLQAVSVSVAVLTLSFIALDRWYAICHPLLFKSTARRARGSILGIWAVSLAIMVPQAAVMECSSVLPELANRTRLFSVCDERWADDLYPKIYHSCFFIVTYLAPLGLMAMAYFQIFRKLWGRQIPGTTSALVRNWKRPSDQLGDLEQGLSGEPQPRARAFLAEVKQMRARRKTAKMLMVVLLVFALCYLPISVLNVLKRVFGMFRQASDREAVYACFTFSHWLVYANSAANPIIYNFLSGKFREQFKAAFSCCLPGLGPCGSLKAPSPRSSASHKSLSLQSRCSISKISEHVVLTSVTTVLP
UniProt O43614, whole entry: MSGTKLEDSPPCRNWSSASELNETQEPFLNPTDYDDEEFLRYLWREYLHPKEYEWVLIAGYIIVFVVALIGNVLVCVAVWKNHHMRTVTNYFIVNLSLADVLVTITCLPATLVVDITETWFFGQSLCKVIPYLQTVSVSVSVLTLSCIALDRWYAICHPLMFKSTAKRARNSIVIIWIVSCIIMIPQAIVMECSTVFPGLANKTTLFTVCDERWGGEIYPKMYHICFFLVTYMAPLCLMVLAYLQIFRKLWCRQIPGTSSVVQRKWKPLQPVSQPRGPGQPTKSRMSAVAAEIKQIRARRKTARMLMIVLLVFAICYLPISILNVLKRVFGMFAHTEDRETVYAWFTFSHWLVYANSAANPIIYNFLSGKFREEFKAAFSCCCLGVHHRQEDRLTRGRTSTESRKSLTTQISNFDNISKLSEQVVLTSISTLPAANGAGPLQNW

Columns and labels:
[1] = biological target: hOX1R (orexin-1 receptor) (Homo sapiens, UniProt O43613); assay: FLIPR Ca2+ flux assay, hOX1R; assay type: cell-based; settings: read-out: hOX1R FLIPR IC50; CHO cells expressing the orexin-1 receptor (head: hOX1R; method: rat); agonist 70 pM Ala-6,12 orexin-A
human orexin-2 receptor = human orexin-2 receptor (Homo sapiens (Human), UniProt O43614); assay: FLIPR Ca2+ flux assay, hOX2R; assay type: cell-based; settings: read-out: hOX2R FLIPR IC50; CHO cells expressing the human orexin-2 receptor; agonist 70 pM Ala-6,12 orexin-A
Description: The utility of the compounds in accordance with the present invention as orexin receptor OX1R and/or OX2R antagonists may be readily determined without undue experimentation by methodology well known in the art, including the “FLIPR Ca^2+ Flux Assay” (Okumura et al., Biochem. Biophys. Res. Comm. 280:976-981, 2001). In a typical experiment the OX1 and OX2 receptor antagonistic activity of the compounds of the present invention was determined in accordance with the following experimental method. For intracellular calcium measurements, Chinese hamster ovary (CHO) cells expressing the rat orexin-1 receptor or the human orexin-2 receptor, are grown in Iscove's modified DMEM containing 2 mM L-glutamine, […], 1% hypoxanthine-thymidine supplement, 100 U/ml penicillin, 100 μg/ml streptomycin and 10% heat-inactivated fetal calf serum (FCS). The cells are seeded at 20,000 cells/well into Becton-Dickinson black 384-well clear bottom sterile plates coated with poly-D-lysine. All reagents were from GIBCO-Invitrogen Corp. The seeded plates are incubated overnight at 37° C. and 5% CO2. […] Within the Fluorescent Imaging Plate Reader (FLIPR, Molecular Devices), test compounds are added to the plate in a volume of 25 μl, incubated for 5 min and finally 25 μl of agonist is added. Fluorescence is measured for each well at 1 second intervals for 5 minutes and the height of each fluorescence peak is compared to the height of the fluorescence peak induced by 70 pM Ala-6,12 orexin-A with buffer in place of antagonist. […] Alternatively, compound potency can be assessed by a radioligand binding assay (described in Bergman et. al. Bioorg. Med. Chem. Lett. 2008, 18, 1425-1430) in which the inhibition constant (Ki) is determined in membranes prepared from CHO cells expressing either the OX1 or OX2 receptor. The intrinsic orexin receptor antagonist activity of a compound which may be used in the present invention may be determined by these assays.

| SMILES | IC50 [1] | IC50 (human orexin-2 receptor) |
| --- | --- | --- |
| COc1ccnc(N[C@@H]2C[C@@H](C)N(C(=O)c3ccccc3-c3nc(C)no3)C2)c1 | 10 µM | 0.278 µM |
| COc1ccnc(N[C@H]2C[C@H](C)N(C(=O)c3ccccc3OC(F)(F)F)C2)c1 | 3.95 µM | 0.041 µM |
| CCCc1ccccc1C(=O)N1C[C@H](Nc2cc(OC)ccn2)C[C@H]1C | 9.83 µM | 0.179 µM |
